{"source": "patent US20230348916A1", "about": "(RESEARCH FOUNDATION FOR SUNY, published 2023)", "key": {"[1]": {"target": "T1, human ferritin heavy chain (H-subunit) (human, UniProt P02794)", "T1 construct": "The number of copies per 24-mer varies with inducer concentrations (0 to 24); also called FtH; FTH", "test": "co-expression in E. coli Rosetta-gami B; single band on 7.5% Native PAGE"}, "[2]": {"target": "the molecule itself", "test": "expression in E. coli BL21; 7.5% Native PAGE (self-assembly)"}}}
{"binder": "human ferritin light chain (L-subunit) (other, The number of copies per 24-mer varies with inducer concentrations (0 to 24); also called FtL; FTL) MSSQIRQNYSTDVEAAVNSLVNLYLQASYTYLSLGFYFDRDDVALEGVSHFFRELAEEKREGYERLLKMQNQRGGRALFQDIKKPAEDEWGKTPDAMKAAMALEKKLNQALLDLHALGSARTDPHLCDFLETHFLDEEVKLIKKMGDHLTNLHRLGGPEAGLGEYLFERLTLKHD", "values": [{"measurement": "binding result", "setting": "[1]", "value": "binds"}, {"measurement": "binding result", "setting": "[2]", "value": "binds"}]}
